Eleven compounds from ChEMBL document CHEMBL2176948 (J Med Chem, 2012) can be followed below.

By UniProt entry, the sequences of proteins in these tests, tags left out.
UniProt P02554, whole entry, looked up: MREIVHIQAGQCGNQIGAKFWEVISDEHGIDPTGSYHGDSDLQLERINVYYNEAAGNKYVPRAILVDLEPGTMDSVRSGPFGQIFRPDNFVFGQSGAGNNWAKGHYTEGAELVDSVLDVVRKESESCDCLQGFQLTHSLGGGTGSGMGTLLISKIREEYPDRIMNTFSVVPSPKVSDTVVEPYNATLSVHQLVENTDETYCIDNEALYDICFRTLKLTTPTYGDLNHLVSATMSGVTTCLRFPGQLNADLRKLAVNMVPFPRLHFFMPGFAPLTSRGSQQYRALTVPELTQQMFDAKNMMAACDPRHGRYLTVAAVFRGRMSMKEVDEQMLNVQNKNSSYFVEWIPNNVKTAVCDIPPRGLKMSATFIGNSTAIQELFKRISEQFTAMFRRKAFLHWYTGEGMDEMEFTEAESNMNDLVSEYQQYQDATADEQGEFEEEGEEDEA
UniProt P02550, whole entry, looked up: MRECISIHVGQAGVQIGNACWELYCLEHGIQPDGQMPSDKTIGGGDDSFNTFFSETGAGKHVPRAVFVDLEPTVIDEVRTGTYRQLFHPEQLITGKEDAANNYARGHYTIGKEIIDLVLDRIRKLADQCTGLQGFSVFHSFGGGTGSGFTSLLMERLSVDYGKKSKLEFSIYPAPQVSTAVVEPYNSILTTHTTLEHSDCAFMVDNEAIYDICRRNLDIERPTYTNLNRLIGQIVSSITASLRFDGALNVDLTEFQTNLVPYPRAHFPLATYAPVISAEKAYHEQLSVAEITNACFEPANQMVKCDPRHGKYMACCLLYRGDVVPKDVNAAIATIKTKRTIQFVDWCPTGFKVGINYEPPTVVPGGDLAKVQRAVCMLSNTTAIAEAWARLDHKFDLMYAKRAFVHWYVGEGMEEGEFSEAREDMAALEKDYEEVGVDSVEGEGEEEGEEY

Experiment [1] addresses T1, Tubulin (Sus scrofa, UniProt P02554+P02550). In words: Binding affinity to pig brain tubulin polymerization measured every 1 mins of 60 mins by fluorescence assay.
Experiment [2] deals with T1, Tubulin. Kind of experiment: Binding affinity to pig brain tubulin. Type of experiment: tissue-based.
For experiment [3], the system named is HeLa. In words: Resistance factor, ratio of IC50 for human HeLa cells expressing class 3 tubulin to IC50 for human HeLa cells. Type of experiment: functional.
Experiment [4] deals with Tubulin (Sus scrofa) (UniProt P02554+P02550). In words: Ratio of colchicine Ki to compound Ki for pig brain tubulin.
Experiment [5] deals with SW780. In words: Resistance factor, ratio of IC50 for human SW780AD cells expressing p-gp to IC50 for human SW780 cells. The format is functional.

As a reminder, the IC50 is the midpoint of a concentration-inhibition curve. A high value points to weaker potency in that assay. By pKi is commonly meant the negative decadic logarithm of the Ki, by convention in mol/L. A high value points to a small Ki. As for `COc1cc2c(c(OC)c1OC)-c1ccc(OC)c(=O)cc1[C@@H](NCc1ccc(Cl)cc1)CC2`, the half-inhibitory concentration (IC50) in experiment [1] is 1.7 µM. The same compound showed a pKi in experiment [2] of 9.897.
`COc1cc2c(c(OC)c1OC)-c1ccc(OC)c(=O)cc1[C@@H](NCc1cccc(F)c1)CC2` gave an IC50 in experiment [1] of 1.49 µM. The compound also gave a pKi in experiment [2] of 9.914.
The matching figures for `COc1cc2c(c(OC)c1OC)-c1ccc(OC)c(=O)cc1[C@@H](NCc1cc(F)c(F)c(F)c1)CC2`: 4.6 µM and 10.196.
On to `COc1cc2c(c(OC)c1OC)-c1ccc(OC)c(=O)cc1[C@@H](NCc1ccc([N+](=O)[O-])cc1)CC2`, for which the IC50 in experiment [1] amounted to 1.99 µM. This compound also displayed a pKi in experiment [2] of 10.233.
For the compound `COc1cc2c(c(OC)c1OC)-c1ccc(OC)c(=O)cc1[C@@H](NCc1ccc(F)cc1)CC2`, the pKi in experiment [2] amounted to 9.737.
In turn, `COc1ccc(CN[C@H]2CCc3cc(OC)c(OC)c(OC)c3-c3ccc(OC)c(=O)cc32)cc1` displayed a concentration for half-maximal inhibition (IC50) in experiment [1] of 6.49 µM. The pKi in experiment [2] amounted to 10.337.
On to `COc1cc2c(c(OC)c1OC)-c1ccc(OC)c(=O)cc1[C@@H](NCc1ccc(I)cc1)CC2`, for which the pKi in experiment [2] is given as 9.553.
Turning to `COc1cc2c(c(OC)c1OC)-c1ccc(OC)c(=O)cc1[C@@H](NCc1ccc(Br)cc1)CC2`, the negative logarithm of the Ki (pKi) in experiment [2] is on record as 9.435.
Turning to `COc1cc2c(c(OC)c1OC)-c1ccc(OC)c(=O)cc1[C@@H](NCc1ccc(F)c(F)c1)CC2`, the entries for the “Ratio IC50” value in experiment [3] and in experiment [5] were 0.55 and 0.9, respectively. The Ratio Ki in experiment [4] turned out to be 10. The same compound returned an IC50 in experiment [1] of 1.52 µM. The compound also registered a negative logarithm of the Ki (pKi) in experiment [2] of 9.846.
Consider `COc1cc2c(c(OC)c1OC)-c1ccc(OC)c(=O)cc1[C@@H](NCc1cccc(F)c1F)CC2`, for which, in experiment [4], the Ratio Ki was 3. For the same compound, the half-inhibitory concentration (IC50) in experiment [1] is 1.62 µM. The compound further registered a pKi in experiment [2] of 9.703.
As to `COc1cc2c(c(OC)c1OC)-c1ccc(OC)c(=O)cc1[C@@H](NCc1cc(F)cc(F)c1)CC2`, the IC50 in experiment [1] stood at 2.98 µM. The compound further displayed a pKi in experiment [2] of 9.882.
